Tests used:
[1] = tested on: endogenous GABARAP; assay: Co-immunoprecipitation of GFP-mCherry-p62/SQSTM1 with endogenous GABARAP, HEK293 cells; assay type: cell-based; settings: HEK293, basal conditions, anti-RFP beads, Western blot; Fig 5A
Procedure: (§1) Blots were probed for the presence of endogenous GABARAP and LC3B proteins. • 3xFlag‐FIP200 WT, E703V, I705V, E703V/I705V and F702A/I705A were overexpressed in HEK293 cells and immunoprecipitated using anti‐Flag beads and subjected to SDS–PAGE and Western blotting. Blots were probed for the presence of endogenous GABARAP and LC3B proteins. • GFP‐FUNDC1 WT, E19V, L21V, E19V/L21V and Y18A/L21A were overexpressed in HEK293 cells and either treated with vehicle only (DMSO) or 20 μM CCCP for 2 h, lysed and GFP‐FUNDC1 immunoprecipitated using anti‐GFP beads (or anti‐RFP beads as control) and subjected to SDS–PAGE and Western blotting. Blots were probed for the presence of endogenous GABARAP and LC3B proteins.

[2] = tested on: endogenous LC3B; assay: Co-immunoprecipitation of GFP-mCherry-p62/SQSTM1 with endogenous LC3B, HEK293 cells; assay type: cell-based; settings: HEK293, basal conditions, anti-RFP beads, Western blot, Fig 5A
Procedure: as §1

With “p62/SQSTM1‐WT: GFP-mCherry-p62/SQSTM1 WT protein” the “interaction of p62/SQSTM1 with endogenous GABARAP” value [1] was “weakly”, the “interaction of p62/SQSTM1 with endogenous LC3B” value [2] was “co‐precipitated with endogenous LC3B” and the “interaction of p62/SQSTM1 with endogenous LC3B” value ([2]; listed as p62/QSQTM1) was “clearly shows a preference for LC3 interaction”.
